According to article PMC4420714 (Peptides, 2015):
Where “and” joins values, the source holds several entries; their conditions need not be identical. Equal values may be shown once. Entries after “also recorded” stand apart in the source; their conditions may differ. Read-outs that look alike come from different tables or passages of the source.

Chains of the proteins cited; added tags and fusions are not shown. Residues count along the entry.
UniProt P32241, 31-457: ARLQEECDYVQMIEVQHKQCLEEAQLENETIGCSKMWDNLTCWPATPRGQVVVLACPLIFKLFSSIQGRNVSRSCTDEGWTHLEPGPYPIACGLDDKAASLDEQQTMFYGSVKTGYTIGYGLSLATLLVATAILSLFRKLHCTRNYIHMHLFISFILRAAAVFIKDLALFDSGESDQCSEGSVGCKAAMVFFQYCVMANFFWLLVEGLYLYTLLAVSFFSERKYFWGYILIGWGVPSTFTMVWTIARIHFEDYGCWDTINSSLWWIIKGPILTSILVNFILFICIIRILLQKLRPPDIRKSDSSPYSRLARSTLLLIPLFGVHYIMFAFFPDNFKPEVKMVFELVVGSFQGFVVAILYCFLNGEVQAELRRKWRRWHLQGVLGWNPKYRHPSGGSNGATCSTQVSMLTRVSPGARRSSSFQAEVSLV

How the values were obtained:
PAC1-R [1] = target: T1, PAC1-R (Homo sapiens, UniProt P41586); assay: Binding of 125I-PACAP27 to PAC1-R stably transfected NIH 3T3 cells; details: for lower affinity for PAC1-R cells than VPAC1-R/PANC-1 cells / lower affinity for PAC1-R cells than VPAC2-R/PANC-1 cells: binding IC50 ratio; for lower affinity for PAC1-R cells than VPAC1-R/PANC-1 cells: VPAC1-R preferring; for lower affinity for PAC1-R cells than VPAC2-R/PANC-1 cells: VPAC2-R preferring; for decrease in affinity for PAC1-R cells compared to native PACAP38 (or PACAP27): ratio of binding IC50, analog vs native parent peptide
T1 sequence (P41586 21-468): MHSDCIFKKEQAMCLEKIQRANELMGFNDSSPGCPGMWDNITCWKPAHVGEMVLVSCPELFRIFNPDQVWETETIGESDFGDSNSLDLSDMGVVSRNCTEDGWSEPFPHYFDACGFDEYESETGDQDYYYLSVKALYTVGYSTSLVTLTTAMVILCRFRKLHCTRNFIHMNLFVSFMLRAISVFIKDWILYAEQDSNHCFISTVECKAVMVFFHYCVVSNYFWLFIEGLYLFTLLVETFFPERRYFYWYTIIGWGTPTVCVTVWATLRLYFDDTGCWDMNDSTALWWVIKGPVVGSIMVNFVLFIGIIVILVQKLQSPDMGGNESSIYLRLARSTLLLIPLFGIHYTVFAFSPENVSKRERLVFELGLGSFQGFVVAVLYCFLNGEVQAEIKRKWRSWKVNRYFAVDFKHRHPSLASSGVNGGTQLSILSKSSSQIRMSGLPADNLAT

VPAC2-R [2] = target: T2, VPAC2-R (Homo sapiens, UniProt P41587); assay: [3H]cAMP generation in VPAC2-R/PANC-1 cells; type: cell-based; details: read-out: [3H]cAMP VPAC2-R/PANC-1 EC50; VPAC2-R/PANC-1 cells
T2 sequence (P41587 24-438): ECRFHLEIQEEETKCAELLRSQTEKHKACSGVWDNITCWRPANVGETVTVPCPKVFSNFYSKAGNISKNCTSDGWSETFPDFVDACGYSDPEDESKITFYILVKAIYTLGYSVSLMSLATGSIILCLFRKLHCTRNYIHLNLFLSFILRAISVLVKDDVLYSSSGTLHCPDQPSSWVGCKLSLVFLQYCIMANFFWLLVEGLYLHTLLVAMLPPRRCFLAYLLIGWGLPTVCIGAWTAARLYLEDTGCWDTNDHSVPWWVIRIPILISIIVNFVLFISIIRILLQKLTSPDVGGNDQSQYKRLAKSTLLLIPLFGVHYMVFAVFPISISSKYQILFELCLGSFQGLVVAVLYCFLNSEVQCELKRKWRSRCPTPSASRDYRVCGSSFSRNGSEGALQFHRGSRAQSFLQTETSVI

PAC1-R [3] = target: T1, PAC1-R; assay: [3H]cAMP generation in PAC1-R cells; type: cell-based; details: for [3H]cAMP PAC1-R % max (agonist class): relative to maximal stimulation by PACAP38, up to 1 µM; for EC50: read-out: [3H]cAMP PAC1-R EC50; for greater affinity than potency, PAC1-R cells: EC50 cAMP over binding IC50
VPAC1-R [4] = target: T3, VPAC1-R (Homo sapiens, UniProt P32241); assay: [3H]cAMP generation in T47D cells; type: cell-based; details: T47D cells; for EC50: read-out: [3H]cAMP T47D EC50; for [3H]cAMP T47D % max (agonist class): relative to PACAP38, up to 1 µM
VPAC1-R [5] = target: T3, VPAC1-R; assay: [3H]cAMP generation in VPAC1-R/PANC-1 cells; type: cell-based; details: for greater affinity than potency for stimulating cAMP generation, VPAC1-R/PANC-1 cells: EC50 cAMP over binding IC50; for EC50: read-out: [3H]cAMP VPAC1-R/PANC-1 EC50; for EC50 / [3H]cAMP VPAC1-R/PANC-1 % max (agonist class): VPAC1-R/PANC-1 cells; for [3H]cAMP VPAC1-R/PANC-1 % max (agonist class): relative to PACAP38, up to 1 µM
VPAC2-R [6] = target: T2, VPAC2-R; type: binding; details: read-out: IC50 VPAC2-R, Sup-T1; Sup-T1 cells, 75 pM 125I-Ro 25-1553, 37°C
VPAC1-R [7] = target: T3, VPAC1-R; assay: Binding of 125I-VIP to VPAC1-R/PANC-1 cells; details: ratio of binding IC50, analog vs native parent peptide

Row | Substance | lower affinity for PAC1-R cells than VPAC1-R/PANC-1 cells (PAC1-R [1]) | lower affinity for PAC1-R cells than VPAC2-R/PANC-1 cells (PAC1-R [1]) | decrease in affinity for PAC1-R cells compared to native PACAP38 (or PACAP27) (PAC1-R [1]) | EC50 (VPAC2-R [2]) | [3H]cAMP PAC1-R % max (agonist class) (PAC1-R [3]; PAC1-R cells) | EC50 (PAC1-R [3]; PAC1-R cells) | EC50 (VPAC1-R [4]) | greater affinity than potency for stimulating cAMP generation, VPAC1-R/PANC-1 cells (VPAC1-R [5]) | EC50 (VPAC1-R [5]) | IC50 (VPAC2-R [6]) | higher affinity (selectivity) for PAC1-R cells over VPAC2-R/PANC-1 cells (PAC1-R [1]; IC50 VPAC2-R/PANC-1 divided by IC50 PAC1-R, binding) | greater affinity than potency, PAC1-R cells (PAC1-R [3]) | [3H]cAMP T47D % max, agonist activity at 1 µM, still increasing (VPAC1-R [4]; at 1 µM) | [3H]cAMP T47D % max (agonist class) (VPAC1-R [4]) | [3H]cAMP VPAC1-R/PANC-1 % max (agonist class) (VPAC1-R [5]) | decrease in affinity for VPAC1-R/PANC-1 cells compared to native PACAP38 (or PACAP27, VIP) (VPAC1-R [7]) | higher potency for PAC1-R cells compared to VPAC1-R/PANC-1 cells (PAC1-R [3]; cAMP generation EC50 ratio) | higher potency for PAC1-R cells compared to VPAC2-R/PANC-1 cells (PAC1-R [3]; cAMP generation EC50 ratio) | IC50 (PAC1-R [1]; read-out: IC50 PAC1-R) | EC50 (PAC1-R [3])
1 | [N-Ac-His^1,Pip^3,Aib^16,Ala^17]PACAP27 [Peptide P8] | 6–10 fold | 2–9 fold | > 1,000 fold | > 1000 nM | no agonist activity; also recorded: No Act | > 1000 nM | > 1000 nM | 1.2–65.2 fold | > 1000 nM | > 1000 nM |  |  |  |  |  |  |  |  |  | 
2 | [N-Ac-His^1,Pip^3]PACAP38 [Peptide P27] |  |  | 100–300 fold | > 1000 nM | no agonist activity; also recorded: No Act | > 1000 nM | > 1000 nM |  | 182 ± 9 nM | 87 ± 2 nM | same affinity | 1.2- to 64 fold | Ag (1 µM, 18) % max | Ag (1 µM, 18) | Ag (1 µM, 72) |  |  |  |  | 
3 | [Pip^3,Aib^16,28,Ala^17,20,Lys^34,D-Lys^38]PACAP38 [Peptide P41] |  |  |  | > 1000 nM | no agonist activity; also recorded: No Act | > 1000 nM | > 1000 nM |  | > 1000 nM | > 1000 nM |  |  |  | No Act | no agonist activity; also recorded: No Act | > 1,000 fold |  |  |  | 
4 | [Pip^3,Aib^16,Ala^17]PACAP27 [Peptide P7] | 6–10 fold |  | > 1,000 fold | > 1000 nM | no agonist activity; also recorded: No Act | > 1000 nM | > 1000 nM | 1.2–65.2 fold | > 1000 nM | > 1000 nM |  |  |  |  |  |  |  |  |  | 
5 | [Pro^3]PACAP27 [Peptide P5] | 6–10 fold | 2–9 fold | > 1,000 fold | > 1000 nM | Ag (1 µM, 55) | 776 ± 67 nM | > 1000 nM | 1.2–65.2 fold | > 1000 nM | > 1000 nM |  |  |  |  |  |  | 2-to-5 fold | 2–5 fold |  | 
6 | [Pro^3]VIP [Peptide P50] |  |  |  | 933 ± 21 nM |  | > 1000 nM | 468 ± 22 nM |  | 324 ± 32 nM | > 1000 nM |  |  |  |  |  |  |  |  |  | 
7 | [Sar^3]PACAP27 [Peptide P6] |  |  | > 1,000 fold | > 1000 nM | Ag (1 µM, 63) | 602 ± 25 nM | 776 ± 49 nM |  | 22.9 ± 0.8 nM | > 1000 nM |  |  |  |  |  |  |  |  |  | 
8 | [Sar^4]PACAP27 [Peptide P22] |  | 2 fold | 15–25 fold | > 1000 nM | inactive; also recorded: Ag (1 µM, 50) |  | > 1000 nM | 1.2–65.2 fold | > 1000 nM | 302 ± 15 nM |  | 1.2- to 64 fold |  |  |  |  |  |  | 55 to 69 nM and 69 nM | > 1000 nM
9 | vasoactive intestinal peptide [VIP, reference compound] |  |  |  |  |  | 174 ± 10 nM |  |  |  |  |  |  |  |  |  |  |  |  |  | 
